Laboratory results published in US9695209B2, “Synthesis of amphiphilic calixarene glycoside detergents and use of same for extracting and stabilizing native functional membrane proteins” (CALIXAR, priority 2014, dated 2017).

Biological target: A2A adenosine protein (Homo sapiens, UniProt P29274)
Assay: Test of solubilization of A2A membrane protein (Western Blot after 100 000 g centrifugation)
Protocol: Enzymol., 125, 27-35]) and 25-heptyloxy-26,27,28-tris(hydroxyl)calix-[4]-arene-5,11,17-tris(acetic acid) sodium salt (called “CALX173ACE”, CMC (H2O)=2.5 mM).
Solubility Test of Protein of Interest: A2A Adenosine.
The protein content was set at 20 mg/ml (20 mM Tris-Cl pH 8.0, 150 mM NaCl, 10% Glycerol). The solubilization is effected at 4° C. The solubilized or non-solubilized protein fractions are separated by a 100 000 g centrifugation step for 1 hour at 4° C.
FIGS. 4a) and 4b) show the test of solubilization of membrane proteins enriched in A2A adenosine protein with CALX173GALO (Western Blot “C”) and CALX173GLUK (Western Blot “D” and “E”) calixarenes of the present invention, and also known detergents, e.g. n-Dodecyl-β-D-Maltopyranoside (called DDM, Western Blot “A”) and 25-heptyloxy-26,27,28-tris(hydroxyl)calix-[4]-arene-5,11,17-tris(acetic acid) sodium salt (called here “CALX173ACE”, Western Blot “B”).

Substance: 25-heptyloxy-26,27,28-tris(hydroxyl)calix-[4]-arene-5,11,17-tris(acetic acid) sodium salt [CALX173ACE]
- solubilization of A2A protein (20 CMC, reference compounds): about 20%
- solubility (solubilization) of A2A adenosine protein (detergent at 20 CMC, 4° C, protein 20 mg/ml): partial
